For two compounds, IC50 results are on record in ChEMBL document CHEMBL5725441, “Bicyclic heterocycle substituted pyridyl compounds useful as kinase modulators” (2017).

Chains of the proteins cited; added tags and fusions are not shown.
UniProt Q9NWZ3, whole entry: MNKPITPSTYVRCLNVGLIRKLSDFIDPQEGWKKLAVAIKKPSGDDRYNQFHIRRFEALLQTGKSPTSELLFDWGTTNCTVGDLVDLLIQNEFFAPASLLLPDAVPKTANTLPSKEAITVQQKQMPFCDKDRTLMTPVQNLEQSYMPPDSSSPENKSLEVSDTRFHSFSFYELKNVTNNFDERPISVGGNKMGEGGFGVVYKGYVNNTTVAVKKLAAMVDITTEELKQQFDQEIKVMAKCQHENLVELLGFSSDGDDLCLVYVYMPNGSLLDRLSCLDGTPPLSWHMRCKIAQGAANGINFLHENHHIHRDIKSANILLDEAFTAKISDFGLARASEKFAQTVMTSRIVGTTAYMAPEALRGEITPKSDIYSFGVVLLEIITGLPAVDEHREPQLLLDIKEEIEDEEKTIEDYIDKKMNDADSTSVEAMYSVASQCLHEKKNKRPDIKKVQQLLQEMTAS

pIC50: −log10 of the molar value.

For the experiment, the target named is Interleukin-1 receptor-associated kinase 4 (Homo sapiens, UniProt Q9NWZ3). The experiment can be described thus: Inhibition Assay: The assays were performed in U-bottom 384-well plates. […] The reaction was initiated by the combination of IRAK4 with substrates and test compounds. The reaction was incubated at room temperature for 60 min. and terminated by adding 45 μL of 35 mM EDTA to each sample. The reaction mixture was analyzed on the Caliper LABCHIP® 3000 (Caliper, Hopkinton, Mass.) by electrophoretic separation of the fluorescent substrate and phosphorylated product.

A word on the pIC50: it is −log10 of the IC50, conventionally taken in molar units. As for `CC(C)(O)[C@H](F)CNC(=O)c1cnc(Nc2ccc3nonc3c2)cc1NC1CC1`, the negative logarithm of the IC50 (pIC50) was 8.23.

Turning to `CCNc1cc(Nc2ccn3nccc3n2)ncc1C(=O)NC[C@@H](F)C(C)(C)O`, the pIC50 was 8.01.
